scFv variants of Ab-14 (heavy chain) against a SARS-CoV-2 spike peptide

Values reported by Engelhart et al. 2022, doi:10.1038/s41597-022-01779-4 (FLAb copy).

Target peptide (SARS-CoV-2 spike, HR2 region): PDVDLGDISGINAS

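The parent was found by panning a naive human phage display library on the peptide. In library AAYL49, one, two or three CDR residues were substituted; doubles and triples were drawn at random. The scFvs were displayed on barcoded MATa yeast, the peptide on MATalpha yeast. The frequency of each diploid, read from paired DNA barcodes, reflects how well the two displayed proteins bind. The ratio of observed to expected reads was calibrated, replicate by replicate, on BCL2-family standards whose Kd was known from biolayer interferometry. Mating was done three times.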

Parent scFv Ab-14: VH joined to VL by a (GGGGS)3 linker. Changes lie in the heavy chain CDRs alone.
VH: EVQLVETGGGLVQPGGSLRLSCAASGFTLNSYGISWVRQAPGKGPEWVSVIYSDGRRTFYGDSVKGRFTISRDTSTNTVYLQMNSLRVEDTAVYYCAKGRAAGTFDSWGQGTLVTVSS
VL: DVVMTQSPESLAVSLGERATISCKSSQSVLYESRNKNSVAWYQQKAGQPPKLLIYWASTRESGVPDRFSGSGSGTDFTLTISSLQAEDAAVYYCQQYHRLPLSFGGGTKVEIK

Variants are written as CDR1, CDR2 and CDR3 of the heavy chain (limits as in the source). Parent: GFTLNSYGIS, VIYSDGRRTFYGDSVK, GRAAGTFDS.
This list gathers variants with a substitution at K65 (VH, numbered from residue 1).
The read-out is the apparent dissociation constant on a log10 scale (nM): the lower, the stronger.
Replicates are averaged; those with no signal do not enter the mean.
"no signal" means that the variant was in the library but no mating with the target was seen in any replicate; the authors take this as a sign of poor binding, and no number exists.
In this assay the parent's reference entry averaged 0.65; its copy inside this library read 4.11 (one replicate of three).
As a blank, each scFv also met three strains without target: over library AAYL49, 15% of these pairings were detected, typically at 4.06 and seldom below 2.83.

CDR-H1,CDR-H2,CDR-H3,"mean, log10 nM",seen in
NFTLNSYGIS,VIYSDGRRTFYGDSVI,GRAAGTFFS,no signal,0/3
GFTLNSYGIS,DIYSDGRRTFYGDSVN,GRSAGTFDS,no signal,0/3
GFTLNSYGIS,VIYSVGRRTFYGESVV,GRAAGTFDS,no signal,0/3
GFTLNSYGIS,VIYSDTRRTFYGDSVV,GRADGTFDS,no signal,0/3
GFTLNSYGIS,VIYSDGRRTFYGDSVH,GRAAGTFVI,2.24,3/3
GFGLNSYGIS,VIYSDGRRTFVGDSVA,GRAAGTFDS,3.25,3/3
GFTLNSYGIE,VIYSDGRRTFYGDSVG,GRFAGTFDS,5.24,1/3
GFALNSYGIS,VIYSDGRRTFYGDSVW,GRAAGRFDS,2.37,3/3
GFTLNSYGIS,VIYSDGRNTFYGDSVC,GRIAGTFDS,4.24,1/3
GFTLNSYGIS,VIYSDGRRTFYGDYVF,ARAAGTFDS,4.24,1/3
GFTLPYYGIS,VIYSDGRRTFYGDSVG,GRAAGTFDS,no signal,0/3
GFTYNSYGIS,VIYEDGRRTFYGDSVM,GRAAGTFDS,4.12,1/3
PFTLNSYGIS,VIYSDGRRTFYGDSVF,GRAAGSFDS,4.87,1/3
GFTLNSYGIS,VIYSDGRRTFYGESVN,GRAAGTFDS,1.27,3/3
GFTLNSYGIS,VIYSDGRRTFYGKSVE,GRAFGTFDS,3.08,2/3
GFTLNSYGIW,VIYSDGRRTFYGDSVM,GRAAGTFDS,no signal,0/3
GFTLNCYGIS,VIYSDGVRTFYGDSVP,GRAAGTFDS,no signal,0/3
GFTNMSYGIS,VIYSDGRRTFYGDSVS,GRAAGTFDS,3.72,1/3
GFTINSYGIS,VIYSDGRRTFYGDSVE,GRADGTFDS,1.38,3/3
GFTINSYGIS,VIDSDGRRTFYGDSVN,GRAAGTFDS,3.95,2/3
GFTLNSYGIS,VIYRDGRRTFYGDSVR,GRAIGTFDS,no signal,0/3
TFTLNSYGIS,VIYSDGRRTFYGDSVM,GRAAGTFDI,3.02,2/3
GFTLNSYGIS,VIRSDGRRTFYGDSVM,GRAAGTFDS,3.73,1/3
GFTLNKYGIS,VIYSDGRRTFYGDSVC,GRAAGTFDS,3.88,3/3
GFTLNSYGIS,VISSDGRRTFYGDSVF,GRAAGTFDS,no signal,0/3
GFSLNSYGIS,VIYSDGRRTFYGDSVN,GRAAGTFDI,0.84,3/3
GFTLNSYGIS,VIYSDGRRTFYGDSTC,GRVAGTFDS,1.73,3/3
GFTLNSYGIS,VIYSDGRRTFYGDSVF,GRAAGTFDS,3.49,1/3
GFTLNSYGIS,VIYIDGRRTFYGDSVT,HRAAGTFDS,no signal,0/3
GFTLNIYGIS,VIYSDGRRTFYGDSVD,GGAAGTFDS,1.71,3/3
GFTLNSYGIS,VIYSDGRRTFYEDSVW,GRAAGQFDS,2.01,3/3
GFTLNSYGIS,VVYSDGRRTFYGKSVC,GRAAGTFDS,no signal,0/3
GFTLNSYGIS,VIYSDGRREFYGLSVA,GRAAGTFDS,3.40,1/3
GFTLNSYGIS,VIYSDGLRTFYGDSVW,GRAAGTFDS,1.56,3/3
GFTLNSYGIS,VINSDGRFTFYGDSVG,GRAAGTFDS,no signal,0/3
GFTLNSYGIS,VIYSDGRRTFYGDRVI,KRAAGTFDS,3.53,2/3
GFYLNSYGIS,QIYSDGRRTFYGDSVA,GRAAGTFDS,3.61,1/3
GMTLNSYGIS,VIYSDGRITFYGDSVY,GRAAGTFDS,no signal,0/3
GFTLNSYGIA,VIYSDGRRTFAGDSVF,GRAAGTFDS,4.50,1/3
GFTLNNYGIS,VIYSDGRRTFVGDSVN,GRAAGTFDS,no signal,0/3
GFTLNSYGIS,VQYSDGRRTFYGDSVP,GRAVGTFDS,3.95,1/3
GFTWNSYGIS,VIYSDGRRTFYGDSVV,GRAAGTFDS,5.61,1/3
GCTLNSYGKS,VIYSDGRRTFYGDSVP,GRAAGTFDS,5.08,3/3
GFTLNSYGIS,VIYSDGRGTFYGDSVN,GRAAITFDS,4.83,1/3
GFTLNSYGIS,VIYSDGRRNFYGDIVL,GRAAGTFDS,3.55,1/3
GFTLNSYGNS,VIYSDGRRTFYGDVVQ,GRAAGTFDS,3.37,1/3
GFTLNEYGIS,VIYSDGRRRFYGDSVQ,GRAAGTFDS,no signal,0/3
GFTLNSYGIS,VIYSDGRRTFYPDWVV,GRAAGTFDS,no signal,0/3
GFTLNSYGVS,VIYSDGRWTFYGDSVR,GRAAGTFDS,no signal,0/3
GFTLNVYGIS,VIYSDGRRTFYGDSVH,GEAAGTFDS,no signal,0/3
GFTLNSYGCS,VIYSDGRDTFYGDSVM,GRAAGTFDS,4.62,1/3
GFTLNSYQIS,VIYSDGRRTFYGDSVY,GRAAPTFDS,no signal,0/3
GFTPNSYGIS,VIYSDGMRTFYGDSVD,GRAAGTFDS,2.22,3/3
GFTLNSYGIS,VIYSDGRRTFYGDSVH,GRAAGTGDS,3.19,1/3
GFTFNSYGIS,VIYSDGRRTFYGDSVP,GRAAGTFDS,no signal,0/3
GFTLNSYGAS,VIYSDGRRTFYGDSVH,GRAAGTGDS,4.32,2/3
GFTLHSYGIS,VIYSDGRRTFYGDSVQ,GRAEGTFDS,no signal,0/3
GFTLNSYGIS,VIYSDGQRTFYGDSVA,GRAAGTFDS,1.32,3/3
GFTLNSYGIS,VIYSDGRRTGYGDSVL,GRAAGTFDS,1.81,3/3
GFTLNSYGIS,VIYSDGRRVFYGDSVV,GRAAGTFDS,1.44,3/3
GFTLNSYGIS,VIYADGRRTFYGDSVF,GRAAGTFTS,0.75,3/3
GFTLNSYGIS,VIYSDGRRTFYGDSVV,GRAAQTTDS,5.36,1/3
GVTLNSNGIS,VIYSDGRRTFYGDSVP,GRAAGTFDS,3.84,2/3
GFTLNSYGIP,RIYSDGRRTFYGDSVN,GRAAGTFDS,no signal,0/3
GFTLNGYGIS,VIYSDGRRTFYGKSVQ,GRAAGTFDS,2.56,3/3
GFTLNSYGIS,PIYSDGRRTFYGDSVR,GRAAGWFDS,5.10,2/3
GFTPNSYGIS,VIYSDGRRTFYGGSVM,GRAAGTFDS,no signal,0/3
IFTLNSYMIS,VIYSDGRRTFYGDSVP,GRAAGTFDS,3.37,1/3
GFTLNSYGIS,VIYSDGRRTFVGDSVH,QRAAGTFDS,no signal,0/3
GFTLNSYGIS,VIYSDGRRTFYGDLVS,GRAVGTFDS,4.11,2/3
GFTLNSYGIS,VIYSDGRITFYGDSVH,GRAAGTFDS,no signal,0/3
GFTLNSQGIS,VIYSDGRRTFYGDSVC,GRHAGTFDS,2.41,3/3
GFTLNSYGIS,VIYSDGRRTFYGDVVS,GRPAGTFDS,3.43,3/3
GFTLNSIGIS,VIYSDGRRTFYGDSVG,GRAALTFDS,5.69,1/3